The assay deals with Rattus norvegicus. Nature of the assay: Antinociceptive activity in iv dosed Sprague-Dawley rat assessed as hot plate latency compound administered as cumulative dose at 5 mins intervals by Hot-plate test. The format is functional. The procedure, abridged:
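Adult female and male Sprague-Dawley rats (10 weeks, n = 6, three per sex) with right external jugular vein catheter. Vehicle 5% Tween 80 + 5% propylene glycol in sterile water, 1.0 mL/kg i.v. After baseline, vehicle then ascending cumulative doses every 5 min, then naltrexone 0.1 mg/kg i.v. Plate at 52 °C, 60 s cutoff. Latency converted to %MPE; ED50 (95% CI) by linear regression.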

Structures are written as SMILES.

In the case of `CN1CC[C@]23c4c5ccc(O)c4O[C@H]2[C@@H](O)C=C[C@H]3[C@H]1C5` [MORPHINE], the ED50 worked out at 12.1 mg/kg.
